Values of other authors in patent US5562894A, “Amino-acyl-type and catecholamine-type contrast agents for MRI” (Regents of the University of California, priority 1993, dated 1996).

Conditions: in vivo; cited from earlier work

albumin-(Gd-DTPA)n: contrast agent which remains largely intravascular
distribution (in words): remains largely intravascular
